Laboratory results: US4225610A, “Immunoactivators derived from amino thiazoles” (Pierre Fabre, S.A., priority 1977, dated 1980)

Assay: in vivo
Details: mouse, po
From the text: The acute toxicity after a single administration of the products per os was studied in mice.
The compounds were placed in suspension in a mixture of Tween 80™ and distilled water. […] Exper.

With `c1ccc([C@H]2CN3CCSC3=N2)cc1` [Levamisole, L-tetramisole, reference compound] the LD50 at 168 h was 185 mg/kg.
